Assay results published in patent US20060189679A1, “C10 cyclopropyl ester substituted taxane compositions” (priority 2005, published 2006).
Read-outs that look alike come from different tables or passages of the source.

Key:
[1] = system: HT-29 human colon tumor xenografts; details: mouse, in vivo
[2] = system: Panc-1 human pancreatic tumor xenografts; details: mouse, in vivo; for antitumor efficacy: iv
[3] = system: MSTO-211H human mesothelioma xenografts

Compound	# Death TR ([1]; female, athymic nude)	# Death NTR [1]	antitumor efficacy ([1]; iv)	# Death TR ([2]; female, nude)	# Death NTR [2]	antitumor efficacy [2]	# Death TR [1]	Max. % BW Loss; Day [1]	# Death TR [2]	#CR [2]	#PR [2]	#SD/PD [2]	slowing tumor growth ([3]; MSTO 61604, 30 mg/kg intravenously Q7Dx3)	time for which growth of HT-29 xenografts was controlled ([1]; iv) [days]	toxicity ([2]; nude)	body weight recovery ([3]; mouse, in vivo, po, 60 mg/kg)
CC(=O)O[C@H]1C(=O)[C@@]2(C)[C@H]([C@H](OC(=O)c3ccccc3)[C@]3(O)C[C@H](OC(=O)[C@H](O)[C@@H](NC(=O)c4ccccc4)c4ccccc4)C(C)=C1C3(C)C)[C@]1(OC(C)=O)CO[C@@H]1C[C@@H]2O [Paclitaxel, paclitaxel]	0	0	equally efficacious with orally administered compound 3102	0	0	equally efficacious with orally administered compound 3102	–	–	–	–	–	–	–	–	–	–
docetaxel	–	0	equally efficacious with orally administered compound 3102	–	0	equally efficacious with orally administered compound 3102	0	−19.9%;	0	0	5	1	only moderately effective in slowing tumor growth	–	–	–
CC(=O)O[C@@]12CO[C@@H]1C[C@H](O)[C@@]1(C)C(=O)[C@H](OC(=O)C3CC3)C3=C(C)[C@@H](OC(=O)[C@H](O)[C@@H](NC(=O)OCC(C)C)c4ccco4)C[C@@](O)([C@@H](OC(=O)c4ccccc4)C12)C3(C)C (some centres unmarked) [Compound 3102]	–	–	–	–	–	–	–	–	–	–	–	–	–	33	proved to be toxic for Panc-1 tumor implanted mice	recovered weight more rapidly than the Taxotere® group
